Data reported in patent US7611713B2 (priority 1999, dated 2009).

Experiments:
[1] = test system: A*2401; assay: HLA class I peptide binding assay, A*2401; parameters: species or system human
[2] = test system: HLA-DR alleles; conditions: result in words; cited from earlier work

Substance	A*2401 (binding information) ([1]; HBV A24 supermotif peptides, HLA-A*2401 binding value as printed, no unit given in the table)	A*2401 binding ([1]; Table XVII, HBV A24 motif peptides, unit not given)	binding to HLA-DR alleles [2]
SWLSLLVPF [Peptide 20.0136]	0.3900	0.3900	
aKXVWANTLKAAa			bind to most HLA-DR alleles
